Data taken from US6444852B1, “Amines useful in inhibiting gas hydrate formation” (Goldschmidt Chemical Corporation, priority 1999, dated 2002).

Assay: Behavior (solubility/dispersibility) in water and […] brine at 5% concentration
Format: physicochemical
Details: 5% concentration as is
Text: The compounds tested are set forth in the following Table 1, CE# denotes a comparative example, whereas S# denotes a compound of the present invention.

Behavior in Water: Soluble
Substance: C12-C14 oxypropyl dibutyl ammonium hydrobromide [Sample S7]
